Values of other authors as cited in patent US20140161785A1, “Verticillin A Inhibition of Histone Methyltransferases” (priority 2012, published 2014).

Molecular target: T1, G9a (Homo sapiens, UniProt Q96KQ7)
T1 sequence (Q96KQ7 1-1210): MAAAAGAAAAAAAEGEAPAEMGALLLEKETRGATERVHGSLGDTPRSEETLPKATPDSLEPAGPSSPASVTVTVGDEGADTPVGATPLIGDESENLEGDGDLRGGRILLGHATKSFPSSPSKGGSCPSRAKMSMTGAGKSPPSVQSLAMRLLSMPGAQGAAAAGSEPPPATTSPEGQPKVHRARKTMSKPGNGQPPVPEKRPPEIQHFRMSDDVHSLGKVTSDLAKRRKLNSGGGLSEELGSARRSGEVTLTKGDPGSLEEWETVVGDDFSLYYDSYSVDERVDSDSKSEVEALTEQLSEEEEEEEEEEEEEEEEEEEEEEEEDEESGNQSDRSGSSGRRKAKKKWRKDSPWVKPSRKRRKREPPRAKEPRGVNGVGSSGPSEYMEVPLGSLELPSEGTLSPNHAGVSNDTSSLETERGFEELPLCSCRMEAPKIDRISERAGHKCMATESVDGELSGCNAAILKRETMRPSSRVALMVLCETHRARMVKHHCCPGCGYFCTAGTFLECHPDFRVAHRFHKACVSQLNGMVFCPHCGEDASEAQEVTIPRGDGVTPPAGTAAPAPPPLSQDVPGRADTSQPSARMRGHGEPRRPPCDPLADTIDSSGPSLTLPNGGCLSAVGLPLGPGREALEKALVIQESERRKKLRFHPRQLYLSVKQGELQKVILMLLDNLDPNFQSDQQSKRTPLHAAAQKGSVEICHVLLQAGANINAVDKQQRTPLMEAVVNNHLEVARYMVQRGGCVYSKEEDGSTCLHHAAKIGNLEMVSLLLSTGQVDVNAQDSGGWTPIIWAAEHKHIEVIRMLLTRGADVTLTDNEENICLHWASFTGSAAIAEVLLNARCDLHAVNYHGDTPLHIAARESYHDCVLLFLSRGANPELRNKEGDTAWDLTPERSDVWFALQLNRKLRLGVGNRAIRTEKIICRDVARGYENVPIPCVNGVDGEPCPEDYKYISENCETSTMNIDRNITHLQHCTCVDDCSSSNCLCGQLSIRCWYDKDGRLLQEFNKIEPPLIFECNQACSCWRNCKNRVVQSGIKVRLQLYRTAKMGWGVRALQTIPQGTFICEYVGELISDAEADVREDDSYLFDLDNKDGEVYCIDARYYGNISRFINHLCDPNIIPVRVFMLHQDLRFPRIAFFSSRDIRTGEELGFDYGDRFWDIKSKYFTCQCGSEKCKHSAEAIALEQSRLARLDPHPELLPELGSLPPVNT
Details: background statement; cited from earlier work

With COc1cc2c(NC3CCN(C)CC3)nc(N3CCCN(C)CC3)nc2cc1OCCCN(C)C [UNC0224] as the compound, how does the IC50 read?
Its IC50 is 15 nM.
